Test results as given in ChEMBL document CHEMBL5726042, “P2X7 modulators” (2017).

Amino acid sequences for entries named in this document (tags omitted). A change or cut given only in a name is not applied to a line headed by its entry.
UniProt Q99572: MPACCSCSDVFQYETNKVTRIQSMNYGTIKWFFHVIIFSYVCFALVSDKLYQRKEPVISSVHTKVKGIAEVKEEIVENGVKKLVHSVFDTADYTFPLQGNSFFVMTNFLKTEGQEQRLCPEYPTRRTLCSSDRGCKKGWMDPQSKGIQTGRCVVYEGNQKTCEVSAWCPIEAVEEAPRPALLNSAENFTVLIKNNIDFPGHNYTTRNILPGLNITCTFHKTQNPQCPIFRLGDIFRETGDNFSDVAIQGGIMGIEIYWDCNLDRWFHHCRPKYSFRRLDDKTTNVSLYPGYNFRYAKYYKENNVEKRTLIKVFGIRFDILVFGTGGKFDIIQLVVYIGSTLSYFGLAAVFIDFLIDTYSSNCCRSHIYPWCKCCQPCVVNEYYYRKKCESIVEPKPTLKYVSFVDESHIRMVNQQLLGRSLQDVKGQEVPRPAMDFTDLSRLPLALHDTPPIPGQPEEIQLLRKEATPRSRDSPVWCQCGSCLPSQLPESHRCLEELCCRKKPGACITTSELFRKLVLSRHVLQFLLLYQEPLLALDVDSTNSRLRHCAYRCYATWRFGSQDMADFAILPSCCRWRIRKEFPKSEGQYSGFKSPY

Target: P2X purinoceptor 7 (Homo sapiens, UniProt Q99572)
Assay: Ca2+ flux Assay: 1321N1 cells expressing the recombinant human or rat P2X7 channel was cultured in HyQ DME/(HyClone/Dulbecco's Modified Eagle Medium) high glucose supplemented with 10% Fetal Bovine Serum (FBS) and appropriate selection marker. Cells were seeded at a density of 25000 cells/well (96-well clear bottom black walled plates) in 100 μl volume/well. On the day of the experiment, cell plates were washed with assay buffer, containing (in mM): 130 NaCl, 2 KCl, 1 CaCl2, 1 MgCl2, 10 HEPES, 5 glucose; pH 7.40 and 300 mOs. After the wash, cells were loaded with the Calcium-4 dye (Molecular Device) and incubated in the dark for 60 minutes. Test compounds were prepared at 250× the test concentration in neat DMSO. Intermediate 96-well compound plates were prepared by transferring 1.2 μL of the compound into 300 μL of assay buffer. A further 3× dilution occurred when transferring 50 μL/well of the compound plate to 100 μL/well in the cell plate. Cells were incubated with test compounds and dye for 30 minutes. Calcium dye fluorescence was monitored in FLIPR as the cells were challenged by adding 50 μL/well of BzATP (final concentration is 250 μM BzATP (human and rat)). The fluorescence change was measured 180 seconds after adding the agonist.
Format: cell-based

IC50: > 10 µM
SMILES: Cc1nc2c(c(-c3ccn[nH]3)n1)CC(C)N(C(=O)c1cccc(OC(F)(F)F)c1F)C2 (stereo unspecified)
